Results: patent US20040053822A1, “Inducing cellular immune responses to mage2/3 using peptide and nucleic acid compositions” (priority 2002, published 2004)

The chains behind the UniProt entries cited, without tags or fusion partners. Where a name states a change or a piece, a line headed by the entry shows the natural chain unless it says otherwise.
UniProt P01889: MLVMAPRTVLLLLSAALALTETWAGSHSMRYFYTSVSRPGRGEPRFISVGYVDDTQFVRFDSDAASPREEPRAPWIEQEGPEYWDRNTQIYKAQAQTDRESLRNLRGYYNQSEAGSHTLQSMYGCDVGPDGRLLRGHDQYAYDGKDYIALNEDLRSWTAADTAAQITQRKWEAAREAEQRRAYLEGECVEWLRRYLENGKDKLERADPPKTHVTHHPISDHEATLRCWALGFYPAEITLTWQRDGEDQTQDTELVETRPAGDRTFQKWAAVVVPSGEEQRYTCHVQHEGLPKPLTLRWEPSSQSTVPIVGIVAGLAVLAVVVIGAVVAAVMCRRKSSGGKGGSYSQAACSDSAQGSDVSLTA

What was measured:
[1] = target: HLA-A*0101 (Homo sapiens, UniProt P04439, A114D/A174V/A182V/D101N/D185E/E176A/E190D/L180R/Q94H/R68K/S129P/T187R/V100A/V91M/W191G); assay: Purified HLA class I peptide binding assay (125I probe inhibition), A*0101; details: HLA-A1 motif-bearing peptides
[2] = target: HLA-B*5101 (B51) (Homo sapiens, UniProt P01889, A329T/A93T/A95T/C349S/D138N/D201E/D98Y/E187L/E204Q/E69T/G107R/I218V/K202T/L105A/L119W/N104I/Q94N/R106L/R155S/R180L/S101N/S121T/S35A/S48A/V306I/V36M/Y195H/Y91F); assay: Purified HLA class I peptide binding assay, B51; details: binding affinity, HLA-B7 supermotif-bearing peptides; read-out: B*5101 nM
[3] = system: B7-supertype molecules (B*0702, B*3501, B*5101, B*5301, and B*5401); assay: B7-supertype cross-reactive binding (five alleles); set-up: species or system human
[4] = target: HLA-B*5301 (Homo sapiens, UniProt P01889, A329T/A93T/A95T/C349S/D201E/D98Y/E176V/E187L/E204Q/E69T/G107R/I218V/K202T/L105A/L119I/N104I/Q94N/R106L/R155S/R180L/S101N/S121R/S35A/S48A/T118I/V127L/V306I/V36M/Y140S/Y91F); assay: Purified HLA class I peptide binding assay, B*5301; details: binding affinity, HLA-B7 supermotif-bearing peptides
[5] = target: HLA-B*3501 (Homo sapiens, UniProt P01889, A329T/A93T/A95T/C349S/D201E/D98Y/E176V/E187L/E204Q/E69T/I218V/K202T/L119I/Q94N/R155S/R180L/S121R/S35A/S48A/T118I/V127L/V306I/V36M/Y140S/Y91F); assay: Purified HLA class I peptide binding assay, B*3501; details: binding affinity, HLA-B7 supermotif-bearing peptides
[6] = target: HLA-B*5401 (Homo sapiens, UniProt P01889, A329T/C349S/D138N/D201E/E176V/E187T/E204Q/E69G/I76V/K202T/L119W/R155S/R180L/S121T/S35A/S48A/V127L/V306I/V36M/Y140L); assay: Purified HLA class I peptide binding assay, B*5401; details: binding affinity, HLA-B7 supermotif-bearing peptides; read-out: B*5401 nM

## CSCC[C@H](NC(=O)[C@@H](NC(=O)[C@@H](NC(=O)[C@@H]1CCCN1C(=O)[C@H](CC(C)C)NC(=O)[C@H](CC(=O)O)NC(=O)[C@H](CO)NC(=O)[C@H](C)N)[C@@H](C)O)[C@@H](C)O)C(=O)N[C@@H](CC(N)=O)C(=O)N[C@@H](Cc1ccc(O)cc1)C(=O)O
[1]
  IC50: 2.6 nM

## CC[C@H](C)[C@H](NC(=O)[C@@H](NC(=O)[C@@H](NC(=O)[C@H](CO)NC(=O)[C@H](Cc1ccccc1)NC(=O)[C@H](CO)NC(=O)[C@@H](NC(=O)[C@H](C)N)[C@@H](C)O)[C@@H](C)O)[C@@H](C)O)C(=O)N[C@@H](CC(N)=O)C(=O)N[C@@H](Cc1ccc(O)cc1)C(=O)O
[1]
  IC50: 455 nM

## CSCC[C@H](NC(=O)[C@@H](NC(=O)[C@@H](NC(=O)[C@@H]1CCCN1C(=O)[C@H](CC(C)C)NC(=O)[C@H](CO)NC(=O)[C@@H](NC(=O)[C@H](C)N)[C@@H](C)O)[C@@H](C)O)[C@@H](C)O)C(=O)N[C@@H](CC(N)=O)C(=O)N[C@@H](Cc1ccc(O)cc1)C(=O)O
[1]
  IC50: 208 nM

## CSCC[C@H](NC(=O)[C@@H](NC(=O)[C@@H](NC(=O)[C@@H]1CCCN1C(=O)[C@@H](N)CC(C)C)[C@@H](C)O)[C@@H](C)O)C(=O)N[C@@H](CC(N)=O)C(=O)N[C@@H](Cc1ccc(O)cc1)C(=O)N1CCC[C@H]1C(=O)N[C@@H](CC(C)C)C(=O)O
[2]
  IC50: 1960 nM
[3]
  No. of B7 Alleles Crossbound: 3
[4]
  IC50: 266 nM

## CC[C@H](C)[C@H](NC(=O)[C@H](CC(C)C)NC(=O)[C@H](CC(C)C)NC(=O)CNC(=O)[C@H](C)NC(=O)[C@H](CCCCN)NC(=O)[C@@H]1CCCN1C(=O)[C@@H](N)CCSC)C(=O)O
[5]
  IC50: > 10000 nM
[6]
  IC50: 313 nM
[3]
  No. of B7 Alleles Crossbound: 4
[4]
  IC50: 358 nM

## CC[C@H](C)[C@H](NC(=O)[C@@H](NC(=O)[C@H](CC(C)C)NC(=O)[C@H](CC(C)C)NC(=O)CNC(=O)[C@H](C)NC(=O)[C@@H](NC(=O)[C@@H]1CCCN1C(=O)[C@@H](N)CCSC)C(C)C)[C@@H](C)CC)C(=O)O
[2]
  IC50: 1.2 nM
[3]
  No. of B7 Alleles Crossbound: 5

## CSCC[C@H](NC(=O)[C@@H](NC(=O)[C@@H](NC(=O)[C@@H]1CCCN1C(=O)[C@H](CC(C)C)NC(=O)[C@H](CO)NC(=O)[C@@H](N)CO)[C@@H](C)O)[C@@H](C)O)C(=O)N[C@@H](CC(N)=O)C(=O)N[C@@H](Cc1ccc(O)cc1)C(=O)O
[1]
  IC50: 676 nM

## CC[C@H](C)[C@H](NC(=O)[C@@H](NC(=O)[C@@H](NC(=O)[C@H](CO)NC(=O)[C@H](Cc1ccccc1)NC(=O)[C@@H](NC(=O)[C@@H](N)CO)[C@@H](C)O)[C@@H](C)O)[C@@H](C)O)C(=O)N[C@@H](CC(N)=O)C(=O)N[C@@H](Cc1ccc(O)cc1)C(=O)O
[1]
  IC50: 490 nM

## CC[C@H](C)[C@H](NC(=O)[C@H](CC(C)C)NC(=O)[C@@H](NC(=O)[C@H](Cc1ccc(O)cc1)NC(=O)[C@H](CC(C)C)NC(=O)[C@H](Cc1c[nH]cn1)NC(=O)[C@H](CO)NC(=O)[C@@H](NC(=O)[C@@H]1CCCN1C(=O)[C@@H](N)C(C)C)[C@@H](C)CC)[C@@H](C)CC)C(=O)O
[2]
  IC50: 50 nM
[5]
  IC50: 2670 nM
[6]
  IC50: 2220 nM
[3]
  No. of B7 Alleles Crossbound: 3

## CC(C)C[C@H](NC(=O)CNC(=O)[C@H](CC(C)C)NC(=O)[C@H](CC(=O)O)NC(=O)[C@@H](NC(=O)[C@@H](N)C(C)C)[C@@H](C)O)C(=O)N[C@@H](CO)C(=O)N[C@@H](Cc1ccc(O)cc1)C(=O)O
[1]
  IC50: 2.7 nM

## CC[C@H](C)[C@H](NC(=O)[C@@H]1CCCN1C(=O)[C@@H](N)C(C)C)C(=O)N[C@@H](CO)C(=O)N[C@@H](Cc1c[nH]cn1)C(=O)N[C@@H](CC(C)C)C(=O)N[C@@H](Cc1ccc(O)cc1)C(=O)N[C@@H](C)C(=O)N[C@@H](CC(C)C)C(=O)O [VPISHLYAL]
[2]
  IC50: 135 nM
[5]
  IC50: 195 nM
[6]
  IC50: 8330 nM
[3]
  No. of B7 Alleles Crossbound: 3
[4]
  IC50: 6640 nM
